This test concerns the target Acetylcholinesterase (Homo sapiens, UniProt P22303). As to the kind of experiment: Assay of Substrate Hydrolysis. Conditions: pH 7; 25 °C.

Protein sequences, listed by entry. Tags and fused reporters are not part of them. Lines headed by an entry give the natural chain unless they say otherwise; changes in a name come on top.
UniProt P22303: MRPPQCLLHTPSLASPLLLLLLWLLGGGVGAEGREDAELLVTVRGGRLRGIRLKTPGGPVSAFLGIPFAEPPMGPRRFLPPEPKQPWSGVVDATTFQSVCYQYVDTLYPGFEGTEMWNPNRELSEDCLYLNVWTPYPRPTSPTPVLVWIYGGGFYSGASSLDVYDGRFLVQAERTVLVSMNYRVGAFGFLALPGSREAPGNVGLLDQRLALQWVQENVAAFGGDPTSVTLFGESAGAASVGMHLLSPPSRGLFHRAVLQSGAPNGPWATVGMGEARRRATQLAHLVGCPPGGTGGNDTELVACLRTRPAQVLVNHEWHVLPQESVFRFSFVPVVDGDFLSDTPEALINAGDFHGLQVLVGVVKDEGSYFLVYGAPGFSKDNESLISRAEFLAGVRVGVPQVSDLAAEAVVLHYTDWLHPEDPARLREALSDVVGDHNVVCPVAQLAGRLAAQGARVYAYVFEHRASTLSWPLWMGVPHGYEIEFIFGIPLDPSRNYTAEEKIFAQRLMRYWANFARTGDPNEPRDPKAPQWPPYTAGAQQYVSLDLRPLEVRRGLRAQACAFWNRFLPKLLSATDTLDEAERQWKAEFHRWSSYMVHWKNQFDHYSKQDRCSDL

Consider `CN(C)c1ccc2nc3ccc(=[N+](C)C)cc-3sc2c1` [Methylene Blue anhydrous], for which the affinity corresponds to a Ki of 110 nM.

Source of the values: BindingDB's records for doi:10.1021/bi401043w (Mayo Clinic, 2013).
